Data reported in PMC5427847, “Epilepsy-associated GRIN2A mutations reduce NMDA receptor trafficking and agonist potency – molecular profiling and functional rescue” (Scientific Reports, 2017).

Amino acid sequences for entries named in this document (tags omitted). Residues count along the entry.
UniProt Q12879, 23-1464: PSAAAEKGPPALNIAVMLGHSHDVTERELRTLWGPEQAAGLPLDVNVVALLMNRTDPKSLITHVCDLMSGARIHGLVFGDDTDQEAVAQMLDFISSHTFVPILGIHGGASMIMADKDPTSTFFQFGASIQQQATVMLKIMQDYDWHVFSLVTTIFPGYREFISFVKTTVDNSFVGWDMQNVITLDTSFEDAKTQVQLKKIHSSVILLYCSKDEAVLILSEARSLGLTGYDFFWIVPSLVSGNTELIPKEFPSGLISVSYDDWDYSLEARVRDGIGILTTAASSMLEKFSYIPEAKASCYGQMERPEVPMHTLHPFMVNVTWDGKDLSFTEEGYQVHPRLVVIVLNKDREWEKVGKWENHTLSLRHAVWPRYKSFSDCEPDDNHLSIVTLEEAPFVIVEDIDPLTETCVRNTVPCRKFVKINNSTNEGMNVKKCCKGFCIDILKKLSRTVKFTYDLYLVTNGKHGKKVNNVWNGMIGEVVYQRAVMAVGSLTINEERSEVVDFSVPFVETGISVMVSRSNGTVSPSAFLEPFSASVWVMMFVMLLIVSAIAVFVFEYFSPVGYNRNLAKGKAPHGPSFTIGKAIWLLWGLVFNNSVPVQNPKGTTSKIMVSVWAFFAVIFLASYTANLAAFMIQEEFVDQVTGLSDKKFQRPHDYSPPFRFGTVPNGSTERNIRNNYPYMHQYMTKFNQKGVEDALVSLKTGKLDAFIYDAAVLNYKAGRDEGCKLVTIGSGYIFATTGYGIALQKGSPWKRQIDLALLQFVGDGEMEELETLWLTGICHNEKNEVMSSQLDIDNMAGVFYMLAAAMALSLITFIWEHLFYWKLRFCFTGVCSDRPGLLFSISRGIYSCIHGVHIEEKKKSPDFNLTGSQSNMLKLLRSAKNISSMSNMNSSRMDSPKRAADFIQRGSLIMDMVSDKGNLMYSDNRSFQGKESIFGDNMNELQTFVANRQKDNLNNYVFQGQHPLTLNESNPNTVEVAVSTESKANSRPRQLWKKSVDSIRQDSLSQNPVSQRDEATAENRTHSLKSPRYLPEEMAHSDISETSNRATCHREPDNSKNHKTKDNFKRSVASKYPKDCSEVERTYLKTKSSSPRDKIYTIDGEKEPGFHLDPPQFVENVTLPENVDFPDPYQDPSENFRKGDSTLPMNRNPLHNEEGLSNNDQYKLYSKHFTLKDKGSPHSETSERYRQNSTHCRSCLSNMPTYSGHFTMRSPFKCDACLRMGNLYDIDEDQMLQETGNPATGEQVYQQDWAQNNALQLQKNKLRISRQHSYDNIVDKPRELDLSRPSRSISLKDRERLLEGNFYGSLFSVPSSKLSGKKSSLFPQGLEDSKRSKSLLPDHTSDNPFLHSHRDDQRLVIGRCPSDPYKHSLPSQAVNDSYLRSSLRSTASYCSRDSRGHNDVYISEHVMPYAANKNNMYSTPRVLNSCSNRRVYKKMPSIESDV
UniProt Q12879, 23-1464 G483R: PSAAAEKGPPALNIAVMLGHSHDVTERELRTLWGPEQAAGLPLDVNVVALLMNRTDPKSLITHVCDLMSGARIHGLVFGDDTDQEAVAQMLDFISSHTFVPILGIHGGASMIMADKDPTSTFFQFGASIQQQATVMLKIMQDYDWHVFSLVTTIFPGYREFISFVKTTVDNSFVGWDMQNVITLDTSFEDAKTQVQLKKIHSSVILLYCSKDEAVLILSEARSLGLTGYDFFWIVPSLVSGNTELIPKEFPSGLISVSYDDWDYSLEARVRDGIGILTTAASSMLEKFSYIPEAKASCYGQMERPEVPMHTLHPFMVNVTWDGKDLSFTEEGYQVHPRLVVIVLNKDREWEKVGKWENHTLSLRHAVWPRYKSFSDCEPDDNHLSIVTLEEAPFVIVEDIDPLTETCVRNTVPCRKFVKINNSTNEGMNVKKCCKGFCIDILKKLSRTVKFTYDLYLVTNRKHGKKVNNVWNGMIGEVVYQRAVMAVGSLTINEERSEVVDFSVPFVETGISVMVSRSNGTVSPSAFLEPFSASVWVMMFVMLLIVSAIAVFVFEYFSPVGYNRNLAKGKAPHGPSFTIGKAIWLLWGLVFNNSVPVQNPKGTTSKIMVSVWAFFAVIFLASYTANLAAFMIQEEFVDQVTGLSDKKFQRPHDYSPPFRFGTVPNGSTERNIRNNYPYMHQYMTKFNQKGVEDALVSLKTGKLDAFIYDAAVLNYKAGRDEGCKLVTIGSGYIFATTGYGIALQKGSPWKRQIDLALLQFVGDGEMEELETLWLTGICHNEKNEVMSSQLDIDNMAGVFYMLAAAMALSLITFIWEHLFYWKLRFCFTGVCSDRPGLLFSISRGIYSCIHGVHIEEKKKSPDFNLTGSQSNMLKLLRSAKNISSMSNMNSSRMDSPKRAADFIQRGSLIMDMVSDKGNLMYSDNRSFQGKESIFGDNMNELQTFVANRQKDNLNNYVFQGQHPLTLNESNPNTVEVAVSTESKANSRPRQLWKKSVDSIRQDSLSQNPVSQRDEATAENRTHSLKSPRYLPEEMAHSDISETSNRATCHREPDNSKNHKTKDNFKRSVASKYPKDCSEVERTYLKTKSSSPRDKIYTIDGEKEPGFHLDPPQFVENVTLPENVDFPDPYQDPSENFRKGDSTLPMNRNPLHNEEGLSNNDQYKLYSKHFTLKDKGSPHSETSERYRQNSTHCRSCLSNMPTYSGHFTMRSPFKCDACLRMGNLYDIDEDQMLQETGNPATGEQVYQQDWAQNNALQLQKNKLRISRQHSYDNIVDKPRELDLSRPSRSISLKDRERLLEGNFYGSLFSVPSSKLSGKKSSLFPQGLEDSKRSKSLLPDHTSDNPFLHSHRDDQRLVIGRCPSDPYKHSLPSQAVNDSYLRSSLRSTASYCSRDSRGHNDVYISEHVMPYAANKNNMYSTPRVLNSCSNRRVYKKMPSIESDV
UniProt Q12879, 23-1464 C231Y: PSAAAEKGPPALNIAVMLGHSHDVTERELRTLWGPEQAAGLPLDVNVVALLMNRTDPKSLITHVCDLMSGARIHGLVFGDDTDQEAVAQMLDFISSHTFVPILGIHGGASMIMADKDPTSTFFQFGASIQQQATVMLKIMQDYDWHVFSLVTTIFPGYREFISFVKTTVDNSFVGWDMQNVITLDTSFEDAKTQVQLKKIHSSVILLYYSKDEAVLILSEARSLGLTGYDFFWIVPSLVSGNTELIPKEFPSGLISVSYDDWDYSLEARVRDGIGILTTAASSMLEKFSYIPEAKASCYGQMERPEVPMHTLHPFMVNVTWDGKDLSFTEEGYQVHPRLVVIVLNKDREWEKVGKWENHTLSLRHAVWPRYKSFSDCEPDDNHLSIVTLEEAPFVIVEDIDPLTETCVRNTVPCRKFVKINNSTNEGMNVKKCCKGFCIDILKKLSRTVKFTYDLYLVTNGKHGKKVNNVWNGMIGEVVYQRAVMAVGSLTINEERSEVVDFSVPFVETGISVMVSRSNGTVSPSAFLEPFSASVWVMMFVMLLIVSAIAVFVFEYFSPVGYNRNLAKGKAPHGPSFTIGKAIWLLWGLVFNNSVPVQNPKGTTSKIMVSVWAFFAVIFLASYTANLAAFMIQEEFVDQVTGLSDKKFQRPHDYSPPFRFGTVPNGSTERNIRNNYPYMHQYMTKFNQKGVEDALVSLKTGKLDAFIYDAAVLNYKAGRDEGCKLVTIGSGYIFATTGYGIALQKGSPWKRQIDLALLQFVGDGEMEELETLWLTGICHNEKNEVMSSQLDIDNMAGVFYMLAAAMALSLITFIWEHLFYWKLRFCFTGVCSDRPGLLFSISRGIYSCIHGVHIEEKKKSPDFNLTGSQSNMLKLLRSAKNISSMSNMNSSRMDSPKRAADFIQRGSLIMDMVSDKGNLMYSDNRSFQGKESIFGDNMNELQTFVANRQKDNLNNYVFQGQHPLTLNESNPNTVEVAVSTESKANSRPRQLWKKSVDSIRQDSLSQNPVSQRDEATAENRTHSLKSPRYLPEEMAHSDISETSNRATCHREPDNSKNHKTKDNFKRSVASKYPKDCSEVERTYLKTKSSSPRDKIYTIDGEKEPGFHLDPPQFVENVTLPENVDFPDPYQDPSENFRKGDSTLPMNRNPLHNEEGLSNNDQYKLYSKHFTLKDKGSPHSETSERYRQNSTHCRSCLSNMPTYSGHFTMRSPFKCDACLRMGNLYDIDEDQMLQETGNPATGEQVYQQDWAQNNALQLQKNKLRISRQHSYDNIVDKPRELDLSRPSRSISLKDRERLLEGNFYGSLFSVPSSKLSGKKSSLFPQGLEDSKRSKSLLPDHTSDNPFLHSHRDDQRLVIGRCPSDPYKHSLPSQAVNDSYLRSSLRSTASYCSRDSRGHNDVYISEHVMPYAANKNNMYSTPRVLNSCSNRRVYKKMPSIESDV
UniProt Q12879, 23-1464 C436R: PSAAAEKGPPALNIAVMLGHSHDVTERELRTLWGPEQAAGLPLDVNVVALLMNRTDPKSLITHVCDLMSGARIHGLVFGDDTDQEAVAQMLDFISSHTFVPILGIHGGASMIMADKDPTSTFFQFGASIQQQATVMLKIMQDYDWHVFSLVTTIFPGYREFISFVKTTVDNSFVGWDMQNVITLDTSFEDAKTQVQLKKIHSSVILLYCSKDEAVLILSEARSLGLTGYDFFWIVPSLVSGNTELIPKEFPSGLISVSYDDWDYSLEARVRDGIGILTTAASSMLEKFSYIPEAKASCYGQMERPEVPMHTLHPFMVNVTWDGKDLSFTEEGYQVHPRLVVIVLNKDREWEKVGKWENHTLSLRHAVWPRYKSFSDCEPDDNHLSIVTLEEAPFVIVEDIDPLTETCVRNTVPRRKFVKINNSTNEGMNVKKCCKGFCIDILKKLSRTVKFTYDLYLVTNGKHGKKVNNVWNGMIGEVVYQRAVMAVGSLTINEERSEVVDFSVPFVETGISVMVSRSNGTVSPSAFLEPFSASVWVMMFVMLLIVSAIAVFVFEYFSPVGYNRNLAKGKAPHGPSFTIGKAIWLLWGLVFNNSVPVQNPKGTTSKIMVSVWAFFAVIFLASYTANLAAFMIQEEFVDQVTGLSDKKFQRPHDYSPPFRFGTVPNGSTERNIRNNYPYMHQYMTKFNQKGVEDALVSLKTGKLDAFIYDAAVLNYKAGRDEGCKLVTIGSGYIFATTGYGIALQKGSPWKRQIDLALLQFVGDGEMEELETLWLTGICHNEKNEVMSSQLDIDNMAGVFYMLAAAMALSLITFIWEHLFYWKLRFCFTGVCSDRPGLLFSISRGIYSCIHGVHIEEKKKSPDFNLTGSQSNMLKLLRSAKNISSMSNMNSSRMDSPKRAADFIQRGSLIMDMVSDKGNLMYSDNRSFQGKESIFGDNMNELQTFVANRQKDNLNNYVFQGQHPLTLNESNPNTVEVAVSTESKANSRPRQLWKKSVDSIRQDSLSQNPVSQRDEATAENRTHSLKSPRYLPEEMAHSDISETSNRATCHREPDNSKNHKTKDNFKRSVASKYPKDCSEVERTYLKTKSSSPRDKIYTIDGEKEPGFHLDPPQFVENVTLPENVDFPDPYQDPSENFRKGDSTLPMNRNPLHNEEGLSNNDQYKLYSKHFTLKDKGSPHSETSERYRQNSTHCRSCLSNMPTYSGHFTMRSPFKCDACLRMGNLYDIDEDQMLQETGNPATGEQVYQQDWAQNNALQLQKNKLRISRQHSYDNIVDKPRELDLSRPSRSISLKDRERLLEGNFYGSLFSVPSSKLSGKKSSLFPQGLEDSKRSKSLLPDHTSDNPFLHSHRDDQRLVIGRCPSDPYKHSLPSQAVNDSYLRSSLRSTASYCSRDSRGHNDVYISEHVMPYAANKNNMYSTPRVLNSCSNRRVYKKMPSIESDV

Legend:
Format in all cases: cell-based
[1] = target: T1, WT GluN2A (NMDAR, co-transfected with GRIN1) (Homo sapiens, UniProt Q05586+Q12879); experiment: Single-cell calcium-flux imaging, HEK-293 transiently transfected with GRIN1 and WT GRIN2A; conditions: 100 µM glutamate + 30 µM glycine, relative to cells responding to 100 µM MgATP, ± SEM
T1 construct: expressed in transfected cells; host or cells: HEK-293
Text: (§1) Transfection with GRIN1 is presumed in the figure legends.
(§2) This compound is subsequently referred to as the PAM.

[2] = target: T2, G483R GluN2A (NMDAR, co-transfected with GRIN1) (Homo sapiens, UniProt Q05586+Q12879, G483R); experiment: Single-cell calcium-flux imaging, HEK-293 transfected with GRIN1 and G483R GRIN2A; conditions: 100 µM glutamate + 30 µM glycine, relative to cells responding to 100 µM MgATP, not significant vs WT
T2 construct: expressed in transfected cells; host or cells: HEK-293
Text: as §1, §2

[3] = target: T3, C231Y GluN2A (NMDAR, co-transfected with GRIN1) (Homo sapiens, UniProt Q05586+Q12879, C231Y); experiment: Single-cell calcium-flux imaging, HEK-293 transfected with GRIN1 and C231Y GRIN2A; conditions: 100 µM glutamate + 30 µM glycine, relative to cells responding to 100 µM MgATP, p < 0.001 vs WT
T3 construct: expressed in transfected cells; host or cells: HEK-293
Text: as §1, §2

[4] = target: T4, C436R GluN2A (NMDAR, co-transfected with GRIN1) (Homo sapiens, UniProt Q05586+Q12879, C436R); experiment: Single-cell calcium-flux imaging, HEK-293 transfected with GRIN1 and C436R GRIN2A; conditions: 100 µM glutamate + 30 µM glycine, relative to cells responding to 100 µM MgATP
T4 construct: expressed in transfected cells; host or cells: HEK-293
Text: as §1, §2

[5] = target: T5, M705V GluN2A (NMDAR, co-transfected with GRIN1) (Homo sapiens, UniProt Q05586+Q12879, M705V); experiment: Single-cell calcium-flux imaging, HEK-293 transfected with GRIN1 and M705V GRIN2A; conditions: 100 µM glutamate + 30 µM glycine, relative to cells responding to 100 µM MgATP, p < 0.01 vs WT
T5 construct: expressed in transfected cells; host or cells: HEK-293
Text: as §1, §2

[6] = target: T6, P79R GluN2A (NMDAR, co-transfected with GRIN1) (Homo sapiens, UniProt Q05586+Q12879, P79R); experiment: Single-cell calcium-flux imaging, HEK-293 transfected with GRIN1 and P79R GRIN2A; conditions: 100 µM glutamate + 30 µM glycine, relative to cells responding to 100 µM MgATP, not significant vs WT
T6 construct: expressed in transfected cells; host or cells: HEK-293
Text: as §1, §2

[7] = target: T7, D731N GluN2A (NMDAR, co-transfected with GRIN1) (Homo sapiens, UniProt Q05586+Q12879, D731N); experiment: Single-cell calcium-flux imaging, HEK-293 transfected with GRIN1 and D731N GRIN2A; conditions: 100 µM glutamate + 30 µM glycine, relative to cells responding to 100 µM MgATP
T7 construct: expressed in transfected cells; host or cells: HEK-293
Text: as §1, §2

[8] = target: T2, G483R GluN2A (NMDAR, co-transfected with GRIN1); experiment: Whole-cell patch clamp recordings of HEK cells transfected with G483R-GRIN2A and GRIN1; conditions: holding potential −60 mV, glutamate 30 nM to 30 µM co-applied with 30 µM glycine, n = 3

SMILES: N[C@@H](CCC(=O)O)C(=O)O [Glutamate, glutamate]
- Percentage of HEK cells responding to maximal glutamate [1]: 81%
- Percentage of HEK cells responding to maximal glutamate [2]: 61%
- Percentage of HEK cells responding to maximal glutamate [3]: 18%
- Percentage of HEK cells responding to maximal glutamate [4]: no response
- Percentage of HEK cells responding to maximal glutamate [5]: 49%
- Percentage of HEK cells responding to maximal glutamate [6]: 75%
- Percentage of HEK cells responding to maximal glutamate [7]: no response
- Glutamate concentration response in patch clamp compared with calcium-flux imaging [8]: very similar results to the calcium-flux imaging
